Test results from patent publication US5244920A, “Pharmaceutical compositions having therapeutical activity based on mercaptoethansulphonic arginine salt” (Schering Spa, priority 1985, dated 1993).

Test: in vivo
Conditions: acute toxicity, species and route not given

Structure (SMILES) | LD50 [mg/kg]
O=S(=O)(O)CCS [Example 2, arginine mercaptoethansulphonate] | > 2000
O=S(=O)(O)CCS [sodium salt, sodium mercaptoethansulphonate, reference compound] | 2080

Counter-ions that a name gives are not always drawn.
